Experiment: Aqueous solubility
Type: physicochemical

For “Phosphoric acid mono-(1-{4-[(S)-5-(acetylamino-methyl)-2-oxo-oxazolidin-3-yl]-2,6-difluorophenyl}-4-methoxymethyl-piperidin-4-yl)ester L-lysine salt [Example 9]”, the “Aqueous solubility at pH 7” value was > 200 mg/ml.

— US8288416B2, “Substituted piperidinophenyl oxazolidinones” (Wockhardt Ltd., priority 2006, dated 2012)
